# Several values for one entry are separate records, joined by “and”; a condition that tells them apart may be missing. Equal entries are not always repeated.
# Target: T1, Bifunctional dihydrofolate reductase-thymidylate synthase (Toxoplasma gondii, UniProt Q07422)
# T1 sequence (Q07422 whole entry): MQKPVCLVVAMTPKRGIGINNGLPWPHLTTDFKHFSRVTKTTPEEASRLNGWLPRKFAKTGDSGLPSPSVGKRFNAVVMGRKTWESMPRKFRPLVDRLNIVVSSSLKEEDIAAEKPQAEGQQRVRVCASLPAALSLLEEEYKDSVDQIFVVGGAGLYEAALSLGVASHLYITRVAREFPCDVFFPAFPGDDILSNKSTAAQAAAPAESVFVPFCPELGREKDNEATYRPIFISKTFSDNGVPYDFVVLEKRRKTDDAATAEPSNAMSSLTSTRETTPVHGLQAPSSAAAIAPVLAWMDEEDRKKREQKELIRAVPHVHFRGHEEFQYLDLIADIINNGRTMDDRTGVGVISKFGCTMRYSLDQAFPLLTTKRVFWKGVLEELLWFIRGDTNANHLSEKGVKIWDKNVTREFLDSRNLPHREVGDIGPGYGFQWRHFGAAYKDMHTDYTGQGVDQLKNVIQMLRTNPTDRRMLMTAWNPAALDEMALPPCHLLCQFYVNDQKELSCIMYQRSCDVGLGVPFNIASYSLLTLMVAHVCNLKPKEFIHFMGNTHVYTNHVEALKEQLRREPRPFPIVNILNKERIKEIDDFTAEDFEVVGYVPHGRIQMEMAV
structure (smiles),measurement,value
"Cc1sc2nc(N)[nH]c(=O)c2c1Sc1ccc(C(=O)N[C@@H](CCC(=O)O)C(=O)O)cc1 [thieno[2,3-d]pyrimidine deriv., 1]",IC50,36 nM and 8 nM
